For two compounds, inhibition results are on record in PubChem BioAssay AID492953 (The Scripps Research Institute Molecular Screening Center, 2010).

Sequences of proteins named here, by UniProt entry; tags and fusion partners are left off.
UniProt P68402, whole entry: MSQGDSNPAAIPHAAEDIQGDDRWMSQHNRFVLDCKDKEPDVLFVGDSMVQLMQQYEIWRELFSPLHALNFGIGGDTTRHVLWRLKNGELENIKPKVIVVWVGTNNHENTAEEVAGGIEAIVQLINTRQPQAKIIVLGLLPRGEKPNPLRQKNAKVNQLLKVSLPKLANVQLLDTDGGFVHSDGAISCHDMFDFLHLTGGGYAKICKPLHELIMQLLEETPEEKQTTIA

This is a selection; strong and weak results do not stand in their true shares. Calls of active or inactive are those of the source.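 Rule for the calls: active = inhibition above the mean of all tested compounds plus 3 SD (cut at about 24% in these data); inactive = the rest.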

The experiment has as its target Platelet-activating factor acetylhydrolase IB subunit alpha2 (Homo sapiens) (UniProt P68402). Put plainly: PAFAH1B2 enzyme inhibitors, primary screen, biochemical, fluorescence polarization, human (AID 492953).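 Note: 0% = enzyme with DMSO and 100% = wells lacking PAFAH1B2.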 The note with it: recombinant PAFAH1B2, FP-rhodamine activity probe, at 3.39 µM, active compounds read high.
For orientation: inhibition means the relative decrease from the control value, in per cent. For the compound `CCC(=O)N(c1ccccc1)C1(COC)CCN(CCc2cccs2)CC1`, the inhibition was inactive: -0.72%. The result for `CCC(=O)N(c1ccccc1)C1(COC)CCN(CCn2nnn(CC)c2=O)CC1` reads inactive: -0.19%.
